Results on 34 compounds are retold here after US20240092779A1, “USP1 INHIBITORS AND USES THEREOF” (Zentaur Therapeutics USA Inc., priority 2022, published 2024).

The chains behind the UniProt entries cited, without tags or fusion partners.
UniProt O94782, whole entry: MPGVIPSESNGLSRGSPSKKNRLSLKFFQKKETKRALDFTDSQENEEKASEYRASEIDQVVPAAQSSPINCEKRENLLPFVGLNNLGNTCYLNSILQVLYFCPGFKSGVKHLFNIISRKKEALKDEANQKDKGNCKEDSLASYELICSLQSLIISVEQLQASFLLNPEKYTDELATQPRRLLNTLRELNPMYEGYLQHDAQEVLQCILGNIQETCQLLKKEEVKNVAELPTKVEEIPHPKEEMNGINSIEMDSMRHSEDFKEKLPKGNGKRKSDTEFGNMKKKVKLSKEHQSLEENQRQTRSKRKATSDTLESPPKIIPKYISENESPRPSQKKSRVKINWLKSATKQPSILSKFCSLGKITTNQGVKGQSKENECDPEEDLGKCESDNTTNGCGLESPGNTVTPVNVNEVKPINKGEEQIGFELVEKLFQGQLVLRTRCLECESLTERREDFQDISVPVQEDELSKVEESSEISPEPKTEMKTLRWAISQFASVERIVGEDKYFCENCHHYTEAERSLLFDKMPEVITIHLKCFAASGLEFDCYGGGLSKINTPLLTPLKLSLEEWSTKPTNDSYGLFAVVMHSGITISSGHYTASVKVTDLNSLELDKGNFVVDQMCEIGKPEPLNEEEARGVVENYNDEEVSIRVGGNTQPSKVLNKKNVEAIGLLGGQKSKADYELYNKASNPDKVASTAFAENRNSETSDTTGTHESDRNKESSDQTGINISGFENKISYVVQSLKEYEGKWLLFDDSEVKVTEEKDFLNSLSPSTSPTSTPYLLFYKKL
UniProt Q8TAF3, whole entry partner: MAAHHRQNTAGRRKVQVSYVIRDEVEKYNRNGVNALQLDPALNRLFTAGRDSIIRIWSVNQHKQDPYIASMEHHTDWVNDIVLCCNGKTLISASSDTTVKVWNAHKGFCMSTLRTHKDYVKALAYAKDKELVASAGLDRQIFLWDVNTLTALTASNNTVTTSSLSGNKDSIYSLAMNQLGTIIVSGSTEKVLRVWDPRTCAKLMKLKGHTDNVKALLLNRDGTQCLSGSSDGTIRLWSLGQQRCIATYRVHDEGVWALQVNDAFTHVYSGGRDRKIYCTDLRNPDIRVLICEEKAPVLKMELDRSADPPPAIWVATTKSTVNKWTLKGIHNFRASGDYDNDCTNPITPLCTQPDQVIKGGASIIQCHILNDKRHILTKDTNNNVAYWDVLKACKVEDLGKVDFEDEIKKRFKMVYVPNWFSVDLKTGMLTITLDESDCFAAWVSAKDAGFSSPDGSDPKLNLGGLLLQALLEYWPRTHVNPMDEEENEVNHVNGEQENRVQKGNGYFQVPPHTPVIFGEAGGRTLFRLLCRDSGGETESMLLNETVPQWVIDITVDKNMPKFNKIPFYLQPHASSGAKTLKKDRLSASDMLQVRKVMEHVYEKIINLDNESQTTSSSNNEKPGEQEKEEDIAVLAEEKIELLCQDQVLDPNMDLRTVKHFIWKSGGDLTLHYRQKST

Where only a bound is given, the exact number is not on record here.

For experiment [1], the system named is MDA-MB-436 cells. Description: CTG Protocol (MDA-MB-436 GI50), antiproliferative activity. Type of experiment: cell-based, human. The settings on record: read-out: MDA-MB-436 GI50; MDA-MB-436 cells (BRCA1 mutation), 7-day incubation, CellTiter-Glo. Background: ATP-based viability assays read luminescence as a measure of living cells.
Experiment [2] deals with HCC1806 Ub-PCNA (USP1). Description: USP1 Western Blot Protocol (HCC1806 Ub-PCNA). Type of experiment: cell-based. The note with it: read-out: HCC1806 Ub-PCNA, HCC1806 cells, 4 hours.
For experiment [3], the target named is recombinant USP1/UAF1 enzyme complex (Homo sapiens, UniProt O94782). Description: Enzyme assay: deubiquitinase fluorometric assay with ubiquitin-Rhodamine substrate. The settings on record: read-out: enzyme; USP1/UAF1, Ub-Rho110 substrate, 2 hours preincubation, 1 hour reaction. In kind it is biochemical.

What is called GI50 is the concentration that inhibits growth by half. Regarding `COc1ncnc(C2CC2)c1-c1ncc2c(n1)N(Cc1ccc(-c3nc(C(F)(F)F)cn3C(C)C)cc1)CCO2`, the concentration for 50% growth inhibition (GI50) in experiment [1] was 0.01 to 0.1 µM. The IC50 in experiment [2] and in experiment [3] was 0.01 to 0.1 µM each time.

For `COc1ncnc(C2CC2)c1-c1cc2c(cn1)OCC(=O)N2Cc1ccc(-c2nc(C(F)(F)F)cn2C)cc1`, in experiment [1], the GI50 lay in the range of 0.01 to 0.1 µM. In addition, the IC50 in experiment [2] and in experiment [3] was 0.01 to 0.1 µM throughout.

`COc1ncnc(C2CC2)c1-c1ncc2cc(C3CCN(C)CC3)c(=O)n(Cc3ccc(-c4nc(C(F)(F)F)cn4C)cc3)c2n1`: the GI50 in experiment [1] was in the range of 0.01 to 0.1 µM. In addition, the IC50 in experiment [2] is 0.01 to 0.1 µM; in experiment [3] it was less than 0.01 µM.

Consider `COc1ncnc(C2CC2)c1-c1ncc2nc(N3CCN(C)CC3)c(=O)n(Cc3ccc(-c4nc(C(F)(F)F)cn4C4CC4)cc3)c2n1` [Compound I-97], for which the concentration for 50% growth inhibition (GI50) in experiment [1] was 0.01 to 0.1 µM. The IC50 in experiment [2] and in experiment [3] was less than 0.01 µM in each case.

Regarding `COc1ncnc(C2CC2)c1-c1ncc2cc(C3=CCN(C)CC3)c(=O)n(Cc3ccc(-c4nc(C(F)(F)F)cn4C(C)C)cc3)c2n1` [Compound I-106], the GI50 in experiment [1] is less than 0.01 µM. Moreover, the IC50 in experiment [2] was 0.01 to 0.1 µM; in experiment [3], less than 0.01 µM.

In the case of `COc1ncnc(C2CC2)c1-c1ncc2ccc(=O)n(Cc3ccc(-c4nc(C(F)(F)F)cn4C(C)C)c(F)c3OC)c2n1` [Compound I-23, 2-(4-cyclopropyl-6-methoxypyrimidin-5-yl)-8-({3-fluoro-4-[1-isopropyl-4-(trifluoromethyl)imidazol-2-yl]-2-methoxyphenyl}methyl)pyrido[2,3-d]pyrimidin-7-one], the GI50 in experiment [1] was less than 0.01 µM. Also, the IC50 in experiment [2] and in experiment [3] was 0.01 to 0.1 µM each time.

As for `COc1ncnc(C2CC2)c1-c1ncc2c(n1)N(Cc1ccc(-c3nc(C(F)(F)F)cn3C)cc1)CCN2`, in experiment [1], the GI50 was in the range of 0.1 to 1 µM. The IC50 in experiment [2] and in experiment [3] was 0.1 to 1 µM throughout.

With `COc1ncnc(C2CC2)c1-c1ncc2c(n1)N(Cc1ccc(-c3nc(C(F)(F)F)cn3C)cc1)C(=O)CO2`, the GI50 in experiment [1] fell in the range of 0.1 to 1 µM.

`COc1ncnc(C2CC2)c1-c1ncc2ccc(=O)n(Cc3ccc(-c4nc(C(F)(F)F)cn4C4CC4)cc3)c2n1`: the GI50 in experiment [1] was less than 0.01 µM. For the same compound, the IC50 in experiment [2] is less than 0.01 µM; in experiment [3], 0.01 to 0.1 µM.

As to `COC(=O)c1cc2cnc(-c3c(OC)ncnc3C3CC3)nc2n(Cc2ccc(-c3nc(C(F)(F)F)cn3C)cc2)c1=O`, in experiment [1], the GI50 was 0.1 to 1 µM. In experiment [3], the IC50 was in the range of 0.01 to 0.1 µM.

As to `COc1ncnc(C2CC2)c1-c1ncc2cc(Cl)c(=O)n(Cc3ccc(-c4nc(C(F)(F)F)cn4C4CC4)cc3)c2n1`, the GI50 in experiment [1] was in the range of 0.01 to 0.1 µM. Also, the IC50 in experiment [2] and in experiment [3] was 0.01 to 0.1 µM each time.

Turning to `COc1cc(Cn2c(=O)cnc3cnc(-c4c(OC)ncnc4C4CC4)nc32)cc(F)c1-c1nc(C(F)(F)F)cn1C(C)C` [Compound I-107], the GI50 in experiment [1] lay in the range of 0.01 to 0.1 µM. The IC50 in experiment [2] was less than 0.01 µM; in experiment [3] it was 0.01 to 0.1 µM.

In the case of `COc1cc(Cn2c(=O)ccc3cnc(-c4c(OC(F)F)ncnc4C4CC4)nc32)cc(F)c1-c1nc(C(F)(F)F)cn1C1CC1`, in experiment [1], the GI50 fell in the range of 0.01 to 0.1 µM. Further, the IC50 in experiment [3] lay in the range of 0.01 to 0.1 µM.

For the compound `CC(C)n1cc(C(F)(F)F)nc1-c1ccc(Cn2c(=O)c(C3CCN(C)CC3)cc3cnc(-c4c(OC(F)F)ncnc4C4CC4)nc32)cc1`, the GI50 in experiment [1] is 0.01 to 0.1 µM. The results for the IC50 in experiment [2] and in experiment [3] were 0.01 to 0.1 µM and less than 0.01 µM, respectively.

As to `CC(C)n1cc(C(F)(F)F)nc1-c1ccc(Cn2c(=O)c(C3=CCN(C)CC3)cc3cnc(-c4c(OC(F)F)ncnc4C4CC4)nc32)cc1`, the GI50 in experiment [1] was in the range of 0.01 to 0.1 µM. The IC50 in experiment [2] is 0.01 to 0.1 µM; in experiment [3], less than 0.01 µM.

Turning to `COc1ncnc(C2CC2)c1-c1ncc2c(n1)N(Cc1ccc(-c3nc(C(F)(F)F)cn3C(C)C)cc1)C(=O)CO2`, in experiment [1], the concentration for 50% growth inhibition (GI50) was in the range of 0.01 to 0.1 µM. The IC50 in experiment [2] and in experiment [3] was 0.01 to 0.1 µM each time.

For the compound `COc1ncnc(C2CC2)c1-c1ncc2cc(C(C)(C)O)c(=O)n(Cc3ccc(-c4nc(C(F)(F)F)cn4C4CC4)cc3)c2n1` [Compound I-109], the GI50 in experiment [1] was in the range of 0.01 to 0.1 µM. Also, the IC50 in experiment [2] was 0.01 to 0.1 µM; in experiment [3], 0.1 to 1 µM.

On to `COc1ncnc(C2CC2)c1-c1ncc2ncc(=O)n(Cc3ccc(-c4nc(C(F)(F)F)c[nH]4)cc3)c2n1`, for which the GI50 in experiment [1] is 0.01 to 0.1 µM. For the same compound, the IC50 in experiment [2] and in experiment [3] was 0.01 to 0.1 µM throughout.

Consider `COc1ncnc(C2CC2)c1-c1cc2c(cn1)ncc(=O)n2Cc1ccc(-c2nc(C(F)(F)F)cn2C)cc1`, for which, in experiment [1], the GI50 was in the range of 0.1 to 1 µM. The IC50 in experiment [2] and in experiment [3] was 0.1 to 1 µM throughout.

For `CCn1cc(C(F)(F)F)nc1-c1ccc(CN2C(=O)COc3cnc(-c4c(OC)ncnc4C4CC4)nc32)cc1`, the GI50 in experiment [1] was 0.01 to 0.1 µM. The IC50 in experiment [2] is less than 0.01 µM; in experiment [3] it was 0.01 to 0.1 µM.

Take `COc1cc(Cn2c(=O)ccc3cnc(-c4c(OC)ncnc4OC)nc32)cc(F)c1-c1nc(C(F)(F)F)cn1C(C)C` [Compound I-113]: the concentration for 50% growth inhibition (GI50) in experiment [1] was in the range of 0.01 to 0.1 µM. Besides, the IC50 in experiment [2] is less than 0.01 µM; in experiment [3], 0.01 to 0.1 µM.

For the compound `CCn1cc(C(F)(F)F)nc1-c1ccc(CN2CCOc3cnc(-c4c(OC)ncnc4C4CC4)nc32)cc1`, in experiment [1], the GI50 is less than 0.01 µM. Also, the IC50 in experiment [2] and in experiment [3] was 0.01 to 0.1 µM in each case.

With `COc1ncnc(C2CC2)c1-c1ncc2cc(C3CCN(C)CC3)c(=O)n(Cc3ccc(-c4nc(C(F)(F)F)cn4C4CC4)cc3)c2n1` [Compound I-111], in experiment [1], the GI50 was less than 0.01 µM. Further, the figures for the IC50 in experiment [2] and in experiment [3] were 0.01 to 0.1 µM and less than 0.01 µM, respectively.

Consider `COc1cc(Cn2c(=O)ccc3cnc(-c4c(OC)ncnc4C4CC4)nc32)cc(F)c1-c1nc(C(F)(F)F)cn1C(C)C` [Compound I-22, 2-(4-cyclopropyl-6-methoxypyrimidin-5-yl)-8-({3-fluoro-4-[1-isopropyl-4-(trifluoromethyl)imidazol-2-yl]-5-methoxyphenyl}methyl)pyrido[2,3-d]pyrimidin-7-one], for which the GI50 in experiment [1] was less than 0.01 µM. The IC50 in experiment [2] and in experiment [3] was 0.01 to 0.1 µM in each case.

Take `COc1cc(Cn2c(=O)cnc3cnc(-c4c(OC)ncnc4C4CC4)nc32)ccc1-c1nc(C(F)(F)F)cn1C(C)C` [Compound I-118]: in experiment [1], the GI50 lay within 0.01 to 0.1 µM. The IC50 in experiment [2] and in experiment [3] was 0.01 to 0.1 µM throughout.

Take `COc1ncnc(C2CC2)c1-c1ncc2cc(C3(O)CCN(C)CC3)c(=O)n(Cc3ccc(-c4nc(C(F)(F)F)cn4C(C)C)cc3)c2n1`: the 50% growth inhibitory concentration (GI50) in experiment [1] is 0.01 to 0.1 µM. For the same compound, the results for the IC50 in experiment [2] and in experiment [3] were 0.01 to 0.1 µM and less than 0.01 µM, respectively.

With `COc1ncnc(OC)c1-c1ncc2ccc(=O)n(Cc3ccc(-c4nc(C(F)(F)F)cn4C4CC4)cc3)c2n1` [Compound I-102], the GI50 in experiment [1] lay within 0.01 to 0.1 µM. Further, the IC50 in experiment [2] and in experiment [3] was 0.01 to 0.1 µM throughout.

For `CC(C)n1ncc(Cl)c1-c1ncc2ccc(=O)n(Cc3ccc(-c4nc(C(F)(F)F)cn4C4CC4)cc3)c2n1`, in experiment [1], the GI50 was in the range of 0.01 to 0.1 µM. Moreover, the IC50 in experiment [2] was in the range of 0.01 to 0.1 µM; in experiment [3] it was 0.1 to 1 µM.

Regarding `COc1ncnc(C2CC2)c1-c1ncc2ccc(=O)n(CC3CCN(c4nc(C(F)(F)F)cn4C4CC4)CC3)c2n1`, the GI50 in experiment [1] lay within 0.01 to 0.1 µM. The IC50 in experiment [3] lay within 0.01 to 0.1 µM.

Take `COc1ncnc(C2CC2)c1-c1cc2c(cn1)NC(=O)CN2Cc1ccc(-c2nc(C(F)(F)F)cn2C)cc1`: the concentration for 50% growth inhibition (GI50) in experiment [1] was 0.1 to 1 µM. Further, the IC50 in experiment [2] is 0.1 to 1 µM; in experiment [3], 0.01 to 0.1 µM.

As to `O=c1ccc2cnc(-c3c(OC(F)F)ncnc3C3CC3)nc2n1Cc1ccc(-c2nc(C(F)(F)F)cn2C2CC2)cc1` [Compound I-103], in experiment [1], the GI50 was less than 0.01 µM. For the same compound, the IC50 in experiment [2] and in experiment [3] was 0.01 to 0.1 µM each time.

Regarding `COc1ncnc(C2CC2)c1-c1ncc2ccc(=O)n(Cc3ccc(-c4nc(C(F)(F)F)cn4CCN4CCN(C)CC4)cc3)c2n1`, in experiment [1], the GI50 is 0.01 to 0.1 µM. In addition, the IC50 was less than 0.01 µM in experiment [2] and 0.01 to 0.1 µM in experiment [3].

Turning to `COc1ncnc(C2CC2)c1-c1cc2c(cn1)OCCN2Cc1ccc(-c2nc(C(F)(F)F)cn2C)cc1`, the GI50 in experiment [1] was in the range of 0.01 to 0.1 µM. Further, the IC50 in experiment [2] and in experiment [3] was 0.01 to 0.1 µM throughout.

Take `COc1ncnc(C2CC2)c1-c1ncc2ccc(=O)n(Cc3ccc(-n4nc(C(F)(F)F)cc4OC)cc3)c2n1` [Compound I-110]: the GI50 in experiment [1] was less than 0.01 µM. The IC50 in experiment [2] was less than 0.01 µM; in experiment [3], 0.01 to 0.1 µM.
